# According to US4354977A, “Phosphonothioate immunogens” (dated 1982):
# System: antiserum formed in response to the immunogen of Example 4
# Experiment: Cross-reactions of an antiserum formed in response to the immunogen of Example 4
# Details: antiserum to immunogen of Example 4
Compound,% Cross-reaction,% Cross-reaction (no ascorbic acid),% Cross-reaction (with ascorbic acid)
C[C@]12CCC(=O)C=C1CC[C@@H]1[C@@H]2CC[C@]2(C)C(=O)CC[C@@H]12,< 0.1%,–,–
C[C@H](O)[C@H]1CC[C@H]2[C@@H]3CC[C@@H]4C[C@H](O[C@@H]5O[C@H](C(=O)O)[C@@H](O)[C@H](O)[C@H]5O)CC[C@]4(C)[C@H]3CC[C@]12C,< 0.1%,–,–
CC(=O)[C@H]1CC[C@H]2[C@@H]3CCC4=CC(=O)CC[C@]4(C)[C@H]3CC[C@]12C,< 0.1%,–,–
C[C@]12CC[C@@H]3c4ccc(O)cc4CC[C@H]3[C@@H]1CCC2=O,57%,–,–
C[C@]12CC[C@@H]3c4ccc(O)cc4CC[C@H]3[C@@H]1C[C@@H](O)[C@@H]2O,< 0.1%,–,–
C[C@]12CC[C@@H]3c4ccc(OS(=O)(=O)O)cc4CC[C@H]3[C@@H]1CC[C@@H]2O,< 0.1%,–,–
CC(=O)[C@@]1(O)CC[C@H]2[C@@H]3CCC4=CC(=O)CC[C@]4(C)[C@H]3CC[C@@]21C,< 0.1%,–,–
C[C@]12CCC(=O)C=C1CC[C@@H]1[C@@H]2[C@@H](O)C[C@@]2(C)[C@H]1CC[C@]2(O)C(=O)CO,< 0.1%,–,–
CC(=O)[C@H]1CC[C@H]2[C@@H]3CC=C4C[C@@H](OS(=O)(=O)O)CC[C@]4(C)[C@H]3CC[C@]12C,< 0.1%,–,–
C[C@]12CC[C@H]3[C@@H](CCC4=CC(=O)CC[C@@]43C)[C@@H]1CC[C@@H]2O,< 0.1%,–,–
C[C@]12CC[C@@H]3c4ccc(OS(=O)(=O)O)cc4CC[C@H]3[C@@H]1CCC2=O,100%,–,–
C[C@]12CC[C@@H]3c4ccc(O[C@@H]5O[C@H](C(=O)O)[C@@H](O)[C@H](O)[C@H]5O)cc4CC[C@H]3[C@@H]1CCC2=O,3.2%,–,–
C[C@]12CC[C@H](O[C@@H]3O[C@H](C(=O)O)[C@@H](O)[C@H](O)[C@H]3O)CC1=CC[C@@H]1[C@@H]2CC[C@]2(C)C(=O)CC[C@@H]12,< 0.1%,–,–
C[C@]12CC[C@H](O)CC1=CC[C@@H]1[C@@H]2CC[C@]2(C)C(=O)CC[C@@H]12,< 0.1%,–,–
C[C@]12CC[C@@H]3c4ccc(O)cc4CC[C@H]3[C@@H]1CC[C@@H]2O,0.5%,–,–
C[C@]12CC[C@@H](OS(=O)(=O)O)C[C@@H]1CC[C@@H]1[C@@H]2CC[C@]2(C)C(=O)CC[C@@H]12,< 0.1%,–,–
C[C@]12CC[C@H](OS(=O)(=O)O)CC1=CC[C@@H]1[C@@H]2CC[C@]2(C)C(=O)CC[C@@H]12,< 0.1%,–,–
C[C@]12CC[C@@H]3c4cc(O)c(O)cc4CC[C@H]3[C@@H]1CCC2=O,–,1.1%,9%
